Values quoted from earlier work in patent publication US4382181A, “Detection of atoms using monochromatic X-rays” (priority 1981, dated 1983).

Test system: plasma proteins such as T4 -binding globulin, T4 -binding prealbumin, and albumin
Conditions: usual value

## N[C@@H](Cc1cc(I)c(Oc2cc(I)c(O)c(I)c2)c(I)c1)C(=O)O [T4, L-thyroxine]
  fraction of T4 in serum in free form: 0.04-0.05%
